{"source": "patent US9447056B2", "about": "“Solid forms of epalrestat” (Bionevia Pharmaceuticals, Inc., priority 2008, dated 2016)", "key": {"[1]": {"details": "at specified conditions (not detailed); DVS profile FIG. 17", "protocol": "Samples were not dried prior to analysis. Equilibrium criteria used for analysis were less than 0.0100% weight change in 5 minutes, with a maximum equilibration time of 3 hours if the weight criterion was not met. Data were not corrected for the initial moisture content of the samples. NaCl and PVP were used as calibration standards."}, "[2]": {"details": "ambient temperature, FIG. 18B, product of Example 8 versus epalrestat free acid"}}}
{"substance": "betaine hydrogen diepalrestat [betaine hydrogen diacid cocrystal]", "values": [{"measurement": "stability to decomposition from uptake of moisture", "setting": "[1]", "value": "stable to decomposition from uptake of moisture"}, {"measurement": "dissolution of epalrestat in water compared with the free acid", "setting": "[2]", "value": "dissolves more quickly"}]}
